Experimental findings from ChEMBL document CHEMBL1135413, “Arylamidrazones as novel corticotropin releasing factor receptor antagonists” (J Med Chem, 2002) are described below.

The target in this experiment is T1, Corticotropin-releasing factor receptor 1 (Homo sapiens, UniProt P34998).
T1 sequence (P34998 whole entry): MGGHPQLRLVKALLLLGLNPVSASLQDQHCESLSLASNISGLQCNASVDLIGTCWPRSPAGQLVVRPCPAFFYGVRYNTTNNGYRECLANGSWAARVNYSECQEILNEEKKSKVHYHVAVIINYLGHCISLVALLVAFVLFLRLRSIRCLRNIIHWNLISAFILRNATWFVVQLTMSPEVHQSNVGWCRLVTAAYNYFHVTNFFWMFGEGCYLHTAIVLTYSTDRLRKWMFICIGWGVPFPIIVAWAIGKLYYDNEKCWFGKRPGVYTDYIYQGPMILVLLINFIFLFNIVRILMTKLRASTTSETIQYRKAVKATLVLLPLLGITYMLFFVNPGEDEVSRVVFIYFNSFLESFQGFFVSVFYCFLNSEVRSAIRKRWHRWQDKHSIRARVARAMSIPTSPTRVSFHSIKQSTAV
Put plainly: Binding affinity against human Corticotropin releasing factor receptor 1.

pKi: −log10 of the molar value.

As to `CC(=O)C(=NNc1ccccc1C)Nc1cccc(Cl)c1`, the pKi was 6.67.

As usually defined, the pKi is the negative decadic logarithm of the Ki, by convention in mol/L. A lower pKi goes with a large Ki.
